In PubChem BioAssay AID588499 (NMMLSC, 2011) one finds inhibition data, which are given here for 26 compounds.

The entries are a selection whose mix differs from that of the whole data set. Some tests of the compounds listed are not included; inactive here does not mean inactive elsewhere. The source made the active and inactive calls. Rule as the data show it: active = inhibition above about 30%; inconclusive = no clear call, values can overlap the other calls; inactive = below that.

This assay deals with Botulinum neurotoxin type A light chain protease (Clostridium botulinum A str. ATCC 3502). Kind of assay: BoNT/A light chain protease inhibitors, primary screen, biochemical, flow cytometry, MLPCN library (AID 588499). Also: plate controls were buffer without enzyme for full effect and enzyme alone for no effect. The settings on record: multiplex microsphere protease substrate cleavage, at 10 µM, stronger effect = higher value. Background: In flow cytometry, cells or beads pass a laser one at a time.
Broadly, the inhibition is the relative decrease from the control value, in per cent. Consider `COc1cc(SC)ccc1C(=O)NCC1(N(C)C)CCCCC1`, for which the inhibition was inactive: 1.2%. For `CCN(CC)CC(C)C(C)OC(=O)C(O)(c1ccccc1)c1ccccc1` (stereo unspecified), the inhibition was inactive: 0.7%. Turning to `CC(C)N1C(=O)CC2(CCN(CCOC(=O)C(O)(c3ccccc3)c3ccccc3)CC2)C1=O`, the inhibition is inactive: -0.3%.

Take `Cc1ccc(C(=O)NCC2(N3CCCCC3)CCCCC2)cc1`: the inhibition is inactive: 0.9%. For the compound `O=C(NCC1(N2CCCCC2)CCCCC1)c1cc([N+](=O)[O-])ccc1Cl`, the inhibition was inactive: 1.2%. For the compound `CN1[C@@H]2CC[C@H]1CC(OC(=O)C(O)(c1ccccc1)c1ccccc1)C2` (stereo partly specified), the inhibition is inactive: -1.2%.

With `O=C(NCC1(N2CCCCC2)CCCCC1)c1cc(F)c(F)cc1Cl`, the inhibition is inactive: -1.1%. As for `C=CCN1CCN(CCOC(=O)C(O)(c2ccccc2)c2ccccc2)CC1`, the inhibition was inactive: 0.2%. Consider `COc1ccc(C(=O)NCC2(N(C)C)CCCCC2)cc1`, for which the inhibition was inactive: -1.1%. In the case of `O=C(NCC1(N2CCCCC2)CCCCC1)c1cccc(Br)c1`, the inhibition was inactive: -0.8%. With `CCN1CCCC(OC(=O)C2(O)c3ccccc3C=Cc3ccccc32)C1` (stereo unspecified), the inhibition is inactive: -0.5%. Consider `Cc1cc(C(=O)NCC2(N3CCCCC3)CCCCC2)ccc1[N+](=O)[O-]`, for which the inhibition was inactive: -2.2%. Turning to `CN(C)c1ccc(C(=O)NCC2(N(C)C)CCCCC2)cc1`, the inhibition was inactive: -3.5%. With `CN(C)C1CCCC1OC(=O)C(O)(c1ccccc1)c1ccccc1` (stereo unspecified), the inhibition is inactive: -1.1%. As for `Cc1ccccc1C(=O)NCC1(N2CCCCC2)CCCCC1`, the inhibition is inactive: 0.8%. On to `COc1ccc(Cl)cc1C(=O)NCC1(N(C)C)CCCCC1`, for which the inhibition was inactive: -0.5%. As to `COc1cccc(C(=O)NCC2(N3CCCCC3)CCCCC2)c1`, the inhibition is inactive: -0.2%. Turning to `O=C(NCC1(N2CCCCC2)CCCCC1)c1cccc(Cl)c1`, the inhibition was inactive: 3%.

Take `CN(C)C1(CNC(=O)c2ccc(Br)cc2)CCCCC1`: the inhibition was inactive: 0.2%. On to `COc1cc(C(=O)NCC2(N(C)C)CCCCC2)c([N+](=O)[O-])cc1OC`, for which the inhibition was inactive: -0.4%. With `C=C(C)C#CC(O)(C(=O)OC1CCN(C)CC1)c1ccccc1` (stereo unspecified) the figure was inactive: -0.3%. Turning to `COc1ccc(Br)c(C(=O)NCC2(N3CCCCC3)CCCCC2)c1`, the inhibition was inactive: 3.5%. With `O=C(OCCN1CCCC1)C(O)(c1ccccc1)c1ccccc1`, the inhibition is inactive: 0.5%. Consider `CC(C)Oc1ccc(C(=O)NCC2(N(C)C)CCCCC2)cc1`, for which the inhibition is inactive: 2.8%. The value for `CN(C)c1cccc(C(=O)NCC2(N(C)C)CCCCC2)c1` was inactive: -0.1%; that for `O=C(OC1CN2CCC1CC2)C(CO)(c1ccccc1)c1ccccc1` (stereo unspecified) was inactive: -0.3%.
